From patent publication US11065277B2, “Method of ameliorating side effects of sickle cell disease treatments” (ALBERT EINSTEIN COLLEGE OF MEDICINE, priority 2015, dated 2021)
Entries after “also recorded” stand apart in the source; their conditions may differ.

Experiments:
Assay type in all cases: in vivo, mouse
BERK mice [1] = assay: Intravital microscopy of the systemic circulation (shear rate, volumetric flow rate, leukocyte adhesion, sickling); settings: for Volumetric flow rate / systemic (peripheral) tissue blood flow: BERK / sickle transgenic mice
WT animals [2] = assay: Whole brain cerebral blood flow (CBF) before and after top-load; settings: post injection vs baseline, 10% top-load
Description: FIG. 3: Whole Brain CBF before (baseline, BL) and after (PI, post injection) 10% top-load with EAF-[…]-Alb. CBF increased in WT animals, but decreased in SS-Antilles and BERK animals. * indicated p<0.001 W.R.T BL. […] This decrease in CBF is also associated with a decrease in cerebral oxygen delivery, resulting in post-drug administration increases in cerebral hypoxia. Using BOLD MRI imaging (which is sensitive to the tissue concentration of deoxy-Hb) the sufficiency of oxygenation of cerebral tissues was measured by assessing the change in deoxy-Hb which occurs with administration of a short inhalation bolus of 100% O2. The measure, termed BOLD-RHO (FIG. 4) indicates adequacy of oxygen delivery to the tissues.

SS-Antilles animals = assay: as above; settings: post injection vs baseline, 10% top-load
Description: FIG. 3: Whole Brain CBF before (baseline, BL) and after (PI, post injection) 10% top-load with EAF-[…]-Alb. CBF increased in WT animals, but decreased in SS-Antilles and BERK animals. * indicated p<0.001 W.R.T BL.

BERK mice [3] = assay: Cerebral blood flow (CBF) after treatment; settings: post injection vs baseline, 10% top-load
WT animals [4] = assay: BOLD-RHO (BOLD MRI response to hyperoxia, gray matter); settings: post injection vs baseline
Description: (§1) FIG. 4: BOLD-RHO (gray matter) Response to Hyperoxia in WT and SCD Models. BL=baseline, PI=post injection. […] This decrease in CBF is also associated with a decrease in cerebral oxygen delivery, resulting in post-drug administration increases in cerebral hypoxia. Using BOLD MRI imaging (which is sensitive to the tissue concentration of deoxy-Hb) the sufficiency of oxygenation of cerebral tissues was measured by assessing the change in deoxy-Hb which occurs with administration of a short inhalation bolus of 100% O2. The measure, termed BOLD-RHO (FIG. 4) indicates adequacy of oxygen delivery to the tissues.

BERK mice [5] = assay: as above; settings: post injection vs baseline, 10% top-load
Description: as §1, with “injection. […] FIG. 6: BOLD-RHO Response in BERK mice at different times following administration of EAF-PEG-Hb.” for “injection.”, “tissues. […] However, unlike EAF-PEG-Alb, the substitution of Alb with Hb in the molecule imparts increased oxygen carrying/delivering capacity to the blood, resulting in reduced likelihood for cerebral sickling and reduced cerebral oxidative stress to the brain. […] This effect can be achieved by combination of any therapy with EAF-PEG-Hb.” for “tissues.”

With “EAF-P5K6-Alb: extension arm facilitated albumin molecule having 6 molecules of 5,000 mw polyethylene glycol (PEG) attached thereto” the “Volumetric flow rate / systemic (peripheral) tissue blood flow” value (BERK mice [1]; after 10% topload) was “increased”, the “Volumetric flow rate / systemic (peripheral) tissue blood flow” value (BERK mice [1]; after 10% topload, listed as EAF-PEG-Alb) was “large improvement; also recorded: increase vessel flow” and the “Shear Rate” value (BERK mice [1]; BERK mice, after 10% topload) was “increased”. For the same substance, the “Leukocyte adhesion in systemic post capillary venules” value (BERK mice [1]; sickle transgenic animals, systemic circulation, listed as EAF-PEG-Alb) was “significantly reduces”, the Sickling (BERK mice [1]; systemic circulation) was “reduces” and the “Whole Brain CBF” value (WT animals [2]) was “increased”. For the same substance, the “Whole Brain CBF” value (WT animals [2]; listed as EAF-PEG-Alb) was “substantially increases”, the “Whole Brain CBF” value (SS-Antilles animals) was “decreased” and the CBF (BERK mice [3]) was “decreased”. For the same substance, the CBF (BERK mice [3]; listed as EAF-PEG-Alb) was “drop in CBF; also recorded: significant decrease”, the “BOLD-RHO (hypoxic stress, deoxyHb response to hyperoxia)” value (WT animals [4]) was “Hypoxic stress decreases” and the “BOLD-RHO (hypoxic stress, brain deoxy-Hb response to hyperoxia)” value (BERK mice [5]) was “increased hypoxic stress”.
